These are literature values, as cited in US20220331342A1, “TREATMENT OF TRAUMATIC ENCEPHALOPATHY BY FIBROBLASTS AND THERAPEUTIC ADJUVANTS” (FIGENE, LLC, priority 2019, published 2022).

Series [1] has as its system ALS patients. The conditions noted are these: two controlled clinical trials.
For series [2], the system named is SOD1 mutant mice. Conditions: single therapy.

Take `Nc1nc2ccc(OC(F)(F)F)cc2s1` [Riluzole, riluzole]: the “increase of survival of ALS patients” value in series [1] is 3-6 months. The increase of survival in series [2] was 13 to 15 days.
